The conditions of this data set: water.

Take “iso^pro^pylamino-3 (indanyl-2 oxy)-1 propanol-2 fumarate [Exemple 13]”: the “Solubilités : Soluble dans l'eau” value was 10%.

The values are drawn from patent EP0037781A1, “Phenyl alcoxy propanol amines, their preparation and their use as medicines” (PIERRE FABRE S.A., priority 1980, dated 1981).
